Reference: patent publication EP2769723A1, “Compounds for use in inhibiting HIV capsid assembly” (priority 2013, dated 2014)

Test system: TZM cells
Assay: Cytotoxicity by MTT test
Format: cell-based
Details: Table 5, 2880 min, tested form: HCl
Procedure: Cytotoxicity of selected hits tested in the assay with NL4.3 infected cells was determined by MTT test. TZM cells were seeded on the previous day on 96-well plate in the density 5 x 10^3 cells per well. The tested compounds were added in different concentrations, but the DMSO concentration never exceeded 1 % DMSO. As controls were used cells treated only with 1 % DMSO (non-toxic concentration) and cells treated with 5 % DMSO (toxic concentration). 20 µl of the CellTiter 96 Aqueous One substrate (Promega) was added to the 100 µl of culture media 48 hrs after the compounds addition and the color development was quantified 4 hrs later by measuring the absorbance at 490 nm on Saphire reader. Compounds were consider non-cytotoxic (at given concentrations) when the measured values were higher than 80 % of the value of 1 % DMSO treated cells.

## c1cncc(-c2nc(Nc3ccc4[nH]nnc4c3)c3ccccc3n2)c1 [AMR.325]
  CC50: 150 µM
